# Source: PubChem BioAssay AID1461 (National Center for Advancing Translational Sciences (NCATS), 2008)
# The chains behind the UniProt entries cited, without tags or fusion partners. Where a name states a change or a piece, a line headed by the entry shows the natural chain unless it says otherwise.
# UniProt Q6W5P4: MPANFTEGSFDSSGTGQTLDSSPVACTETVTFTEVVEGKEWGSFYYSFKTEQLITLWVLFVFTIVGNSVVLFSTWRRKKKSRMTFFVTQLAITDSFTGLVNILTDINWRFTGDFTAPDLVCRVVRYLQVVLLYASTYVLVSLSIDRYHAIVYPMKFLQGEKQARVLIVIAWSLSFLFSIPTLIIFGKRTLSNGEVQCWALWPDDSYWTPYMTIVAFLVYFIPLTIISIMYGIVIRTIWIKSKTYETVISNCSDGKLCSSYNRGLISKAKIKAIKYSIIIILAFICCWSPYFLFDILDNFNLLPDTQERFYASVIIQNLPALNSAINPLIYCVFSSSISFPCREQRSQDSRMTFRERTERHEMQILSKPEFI
# The list shows a part of the results, in another mix than the full data. Records with an inconclusive call do not appear. The source made the active and inactive calls. Calls follow the shape of the dose curve; as a rule, active = well fitted inhibition curve with a large enough effect; inconclusive = small, poorly fitted or top-dose-only effect, or effect the other way; inactive = no such curve, though single readings can be large or run the other way.
# Target: Neuropeptide S receptor (Homo sapiens) (UniProt Q6W5P4)
# Test: qHTS Assay for Antagonists of the Neuropeptide S Receptor: cAMP Signal Transduction; also: nearly all actives have a fitted effect of over 50% in size
# Conditions: CHO-NPSR cells, cAMP TR-FRET, antagonist mode
# [1] = at 38.3 µM (top of the series) unless noted
# % is scaled to controls: 0 for no effect and ±100 for the full control effect.
smiles,measurement,setting,value
O=P(Nc1nccs1)(Oc1ccccc1)Oc1ccccc1,"activity change, negative = inhibition",[1],inactive: 6.2%
Nc1ccccc1[As](=O)(O)c1ccccc1,"activity change, negative = inhibition",[1],inactive: -20.4%
O=C(O)COc1ccc([As](=O)(O)O)cc1[N+](=O)[O-],"activity change, negative = inhibition",[1],inactive: 4.61% [at 7.67 µM]
CCCOP(=S)(Nc1nc(N)cc(=O)[nH]1)OCCC,"activity change, negative = inhibition",[1],inactive: 2.4%
Nc1cccc2c([As](=O)(O)O)cccc12,"activity change, negative = inhibition",[1],inactive: -6.47%
Cc1ccc(NCCc2c([N+](=O)[O-])cc([N+](=O)[O-])cc2[N+](=O)[O-])cc1,"activity change, negative = inhibition",[1],inactive: -0.665% [at 46.1 µM]
COc1cc(C2NCCC3(OCCO3)C2(C)C)cc(OC)c1OC (configuration not stated),"activity change, negative = inhibition",[1],inactive: 12.7%
CCOP(=O)(Nc1cccc2ccccc12)OCC,"activity change, negative = inhibition",[1],inactive: 0.695%
COc1cc(C(=O)NCC2(N3CCOCC3)CCCCC2)cc(Cl)c1OC(C)C,"activity change, negative = inhibition",[1],inactive: -34.7%
O=[As](O)(O)c1cccnc1,"activity change, negative = inhibition",[1],inactive: -15.1%
O=C(OC1CN2CCC1CC2)c1ccc(Cl)cc1 (configuration not stated),"activity change, negative = inhibition",[1],inactive: -3.13% [at 7.67 µM]
CN(C(=O)Cc1ccc(Cl)c(Cl)c1)[C@@H]1CC[C@]2(CCCO2)C[C@H]1N1CCCC1,"activity change, negative = inhibition",[1],inactive: -2.94% [at 46.1 µM]
O=[As](O)(c1cccc(O)c1)c1cccc(O)c1,"activity change, negative = inhibition",[1],inactive: -4.17%
Cc1cccc(OCC(=O)OC2CN3CCC2CC3)c1 (configuration not stated),"activity change, negative = inhibition",[1],inactive: 6.47% [at 46.1 µM]
O=[As](O)(c1ccccc1Br)c1ccccc1Br,"activity change, negative = inhibition",[1],inactive: -12.2%
CC(C)/C=N\N=C(\N)N[N+](=O)[O-],"activity change, negative = inhibition",[1],inactive: 20.3%
CN(C(=O)Cc1ccc(Cl)c(Cl)c1)[C@@H]1CCCC[C@H]1N1CCCC1,"activity change, negative = inhibition",at 38.3 µM (top of the series),inactive: -10.8%
same,"activity change, negative = inhibition",at 46.1 µM (top of the series),inactive: 10.6%
CN(CCCl)Cc1cc(Cl)c(NC2=NCCN2)c(Cl)c1,"activity change, negative = inhibition",[1],inactive: -11.2% [at 46.1 µM]
CCOP(=O)(Nc1ccc(C)cn1)OCC,"activity change, negative = inhibition",[1],inactive: 15%
O=P1(Nc2ccccn2)COc2ccccc2OC1,"activity change, negative = inhibition",[1],inactive: -5.46% [at 46.1 µM]
Clc1n[nH]nc1-c1nn[nH][15n]1,"activity change, negative = inhibition",[1],inactive: -5.47% [at 46.1 µM]
CC(C)(C)C(=O)NC(Sc1ncccn1)C(Cl)(Cl)Cl (configuration not stated),"activity change, negative = inhibition",[1],inactive: -4.2%
O=P1(Nc2ncccn2)COc2ccccc2OC1,"activity change, negative = inhibition",[1],inactive: 12.6% [at 46.1 µM]
O=P1(Nc2ccc(Br)cn2)COc2ccccc2OC1,"activity change, negative = inhibition",[1],inactive: -8.1% [at 46.1 µM]
O=[As](O)(c1cccs1)c1cccs1,"activity change, negative = inhibition",[1],inactive: 15.6%
Cc1ccc(OCC(=O)OC2CN3CCC2CC3)cc1 (configuration not stated),"activity change, negative = inhibition",[1],inactive: -3.71% [at 46.1 µM]
Nc1cccc([As](=O)(O)c2ccccc2)c1,"activity change, negative = inhibition",[1],inactive: -23.8%
Cc1nn(-c2ccccc2)c2c1P(=O)(N1CCOCC1)N(C)C(c1ccccc1)=N2 (configuration not stated),"activity change, negative = inhibition",[1],inactive: -7.01% [at 46.1 µM]
CC1CCC(C(C)C)C(OP(=O)(Nc2ccccn2)c2ccccc2)C1 (configuration not stated),"activity change, negative = inhibition",[1],inactive: -59.8%
O=C(/C=C/c1ccccc1)OC1CN2CCC1CC2 (configuration not stated),"activity change, negative = inhibition",[1],inactive: -14.3%
CN(C)C1(CNC(=O)c2ccc(S(C)(=O)=O)cc2)CCCCC1,"activity change, negative = inhibition",[1],inactive: -11.1%
